According to article PMC5572076 (Xenobiotica; the fate of foreign compounds in biological …, 2016):

Legend:
[1] = NAC plasma pharmacokinetics with or without probenecid, intraperitoneal; type: in vivo, Sprague-Dawley rats; details: starting at 2 h after administration, vs NAC alone
[2] = type: in vivo, Sprague-Dawley rats; details: differences from 1 h up to 4 h, vs NAC alone

effect of probenecid on NAC plasma concentrations [1]: increased significantly
effect of probenecid on NAC brain concentration-time profile [2]: significantly increased
Compound: CCCN(CCC)S(=O)(=O)c1ccc(C(=O)O)cc1 [probenecid]
